ChEMBL document CHEMBL3608278 (J Med Chem, 2015)

By UniProt entry, the sequences of proteins in these tests, tags left out.
UniProt P22001, whole entry: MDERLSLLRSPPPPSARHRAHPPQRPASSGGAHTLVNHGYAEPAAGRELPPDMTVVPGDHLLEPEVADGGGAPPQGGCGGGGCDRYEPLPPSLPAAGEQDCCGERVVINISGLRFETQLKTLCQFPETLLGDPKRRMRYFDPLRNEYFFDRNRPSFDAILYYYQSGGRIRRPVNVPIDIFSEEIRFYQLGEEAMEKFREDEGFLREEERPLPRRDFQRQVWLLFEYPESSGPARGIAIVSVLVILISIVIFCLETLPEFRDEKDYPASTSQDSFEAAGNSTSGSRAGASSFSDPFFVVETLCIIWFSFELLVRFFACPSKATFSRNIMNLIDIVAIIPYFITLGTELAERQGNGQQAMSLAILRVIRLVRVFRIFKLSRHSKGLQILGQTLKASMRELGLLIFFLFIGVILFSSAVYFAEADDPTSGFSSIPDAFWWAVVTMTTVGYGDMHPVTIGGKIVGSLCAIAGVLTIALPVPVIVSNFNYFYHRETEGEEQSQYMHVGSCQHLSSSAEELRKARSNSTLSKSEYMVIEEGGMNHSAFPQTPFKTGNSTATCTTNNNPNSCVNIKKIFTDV

Experiments:
[1] = Half life in rat; assay type: ADME, organism-based; details: in vivo
[2] = biological target: T1, Potassium voltage-gated channel subfamily A member 3 (Homo sapiens, UniProt P22001); experiment: cell-based; design: species or system Blood
[3] = biological target: T1, Potassium voltage-gated channel subfamily A member 3; assay type: cell-based, CHO-K1
[4] = biological target: T1, Potassium voltage-gated channel subfamily A member 3; design: species or system Blood

| Compound | half-life [1] [h] | IC50 [2] [pM] | IC50 [3] [pM] | IC50 [4] [pM] |
| --- | --- | --- | --- | --- |
| CC[C@H](C)[C@@H]1NC(=O)[C@@H](NC(=O)[C@H](CO)NC(=O)[C@H](CCCNC(=N)N)NC(=O)COCCOCCNC(=O)[C@@H](N)Cc2ccc(OP(=O)(O)O)cc2)CSSC[C@@H](C(=O)O)NC(=O)[C@H]([C@@H](C)O)NC(=O)CNC(=O)[C@@H]2CSSC[C@@H]3NC(=O)[C@H](CCC(N)=O)NC(=O)[C@H](Cc4ccccc4)NC(=O)[C@H](C)NC(=O)[C@H]([C@@H](C)O)NC(=O)[C@H](CSSC[C@H](NC(=O)[C@H](Cc4ccccc4)NC(=O)[C@H](CO)NC(=O)[C@H](CC(C)C)NC(=O)[C@H](CCCNC(=N)N)NC(=O)[C@H](Cc4ccc(O)cc4)NC(=O)[C@H](CCCCN)NC(=O)[C@H](CCSC)NC(=O)[C@H](CO)NC(=O)[C@H](Cc4cnc[nH]4)NC(=O)[C@H](CCCCN)NC3=O)C(=O)N[C@@H](CCCNC(=N)N)C(=O)N[C@@H](CCCCN)C(=O)N[C@@H]([C@@H](C)O)C(=O)N2)NC(=O)[C@H](CCCNC(=N)N)NC(=O)[C@H](CO)NC(=O)[C@H](CCCCN)NC(=O)[C@@H]2CCCN2C(=O)[C@H]([C@@H](C)CC)NC(=O)[C@H]([C@@H](C)O)NC(=O)[C@H](CC(=O)O)NC1=O | < 1 | – | – | – |
| CC[C@H](C)[C@@H]1NC(=O)[C@@H](NC(=O)[C@H](CO)NC(=O)[C@@H](N)CCCNC(=N)N)CSSC[C@@H](C(=O)O)NC(=O)[C@H]([C@@H](C)O)NC(=O)CNC(=O)[C@@H]2CSSC[C@@H]3NC(=O)[C@H](CCC(N)=O)NC(=O)[C@H](Cc4ccccc4)NC(=O)[C@H](C)NC(=O)[C@H]([C@@H](C)O)NC(=O)[C@H](CSSC[C@H](NC(=O)[C@H](Cc4ccccc4)NC(=O)[C@H](Cc4cccc5ccccc45)NC(=O)[C@H](CC(C)C)NC(=O)[C@H](CCCNC(=N)N)NC(=O)[C@H](Cc4ccc(O)cc4)NC(=O)[C@H](CCCCN)NC(=O)[C@H](CCSC)NC(=O)[C@H](CO)NC(=O)[C@H](Cc4cnc[nH]4)NC(=O)[C@H](CCCCN)NC3=O)C(=O)N[C@@H](CCCNC(=N)N)C(=O)N[C@@H](CCCCN)C(=O)N[C@@H]([C@@H](C)O)C(=O)N2)NC(=O)[C@H](CCCNC(=N)N)NC(=O)[C@H](CO)NC(=O)[C@H](CCCCN)NC(=O)[C@@H]2CCCN2C(=O)[C@H]([C@@H](C)CC)NC(=O)[C@H]([C@@H](C)O)NC(=O)[C@H](CC(=O)O)NC1=O | – | 357 | 207 | 573 |
